# miR-21 FLuc = miR-21 reporter, rising signal | HeLa miR-21 FLuc reporter, luciferase, 48 h | Potency, µM (top dose mostly 38.3 µM), inactives show at the top dose reporter change, positive = more light | 340,000 tested, under 10 active | AID 2288; active = well fitted rising curve with a large enough effect; inconclusive = small, poorly fitted or top-dose-only effect; inactive = no such curve, though single readings can be large or run the other way;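 further: % of control where 0% means no effect; miR-21 action dims this reporter so a rising signal means less miR-21 action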
#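 Using DMEM plus 10% FBS, HeLa miR-21-FLuc cells are incubated with test compounds (final up to about 40uM) for 48 hours; firefly luciferase signal is then imaged following reagent-mediated lysis.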
# Nrf2 block = inhibitors of Nrf2 signaling; A549 ARE-Fluc reporter, luciferase luminescence, 18-24 h; Potency, µM (series often up to 46 µM), inactives show top-dose activity change, negative = inhibition, hits mostly inhibitors; actives 2.1% (n = 360,000); AID 504444; also: potency is read from the fitted curve at half-maximal effect; % is scaled to controls: 0 for no effect and ±100 for the full control effect; nearly all actives have a fitted effect of over 60% in size
#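 Cells were seeded and rested 2 h, then exposed to compounds for 18-24 h. CellTiter-Fluor was read first as a viability measure. BugLite was added 15 min before the final luminescent read of ARE-luciferase activity in A549 cells.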
# ClpP mod = qHTS Assay for Activators of ClpP; actives 1.9% (n = 340,000); AID 651965, 2013; ATP-dependent Clp protease proteolytic subunit (Bacillus subtilis (strain 168)), P80244; purified B. subtilis ClpP, FRET peptide cleavage, 20 min; Potency, µM (top dose mostly 57.5 µM), inactives show top-dose activity change, negative = active; active = well fitted falling curve with a large enough effect; inconclusive = small, poorly fitted or top-dose-only effect; inactive = no such curve, though single readings can be large or run the other way; also: potency is read from the fitted curve at half-maximal effect; the source files actives as falling curves though it sought activators and does not explain the sign; nearly all actives have a fitted effect of over 65% in size
#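 Purified B. subtilis ClpP, 10 microg/mL final in Tris/HCl pH8 with KCl, BSA, glycerol and Tween-20, cleaved an Abz/nitrotyrosine-quenched decapeptide. Fluorescence (ex 320, em 430) was read at 0 and 20 min at room temperature. Delta was normalized to 5.8 microM ADEP and DMSO/no-enzyme controls.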
# A549 tox = kills or reduces viability of A549 cells in Nrf2 counter-screen. A549 ARE-Fluc cells, CellTiter-Fluor viability, 18-24 h. AID 504648. actives 0.16% (n = 390,000). Potency, µM (top dose mostly 46 µM), inactives show at the highest dose activity change, negative = cytotoxicity, usual class: inhibitors; also: potency is read from the fitted curve at half-maximal effect; % is scaled to controls: 0 for no effect and ±100 for the full control effect
#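 A549 ARE-Fluc cells in 5% FBS OPTI-MEM, 5000 cells/well, rested 2 h then exposed to compounds in concentration-response for 18-24 h at 37 °C. Viability by CellTiter-Fluor fluorescence (Ex 405/Em 525) after 30 min; luciferase luminescence (BugLite, 15 min, RT) read afterwards.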
# Nrf2 activator = activators of Nrf2 (ARE) signaling; AREc32 ARE-luciferase reporter (MCF7-derived line), luminescence, 24 h; Potency, µM (top dose mostly 46.1 µM), without a hit: top-dose activation, actives largely listed as activators; actives 0.31% (n = 410,000); also: potency is read from the fitted curve at half-maximal effect; % of control where 0% means no effect; nearly all actives have a fitted effect of over 65% in size
#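 For detection, Steady-Glo was added and plates sat 30 min at RT; before that, AREc32_Fluc cells grown overnight in OPTI-MEM/5% FBS had been treated with 23 nL compound for 24 hr at 37 deg C.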
# IL-2 act = activators of IL-2 | IL-2 activation reporter assay, cell-based qHTS; stimulated with anti-CD3/CD4/CD28 beads; in transgenic mouse T cells | activation, % (series mostly up to about 46 µM) | actives 0.065% (n = 360,000) | AID 652025; in the data active = activation above about 50%; inconclusive = mostly about 30% to 49%; also: 0% is about no effect
#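 First, unstimulated transgenic mouse T cells were exposed to compound for 60 min. Next, anti-CD3/anti-CD4-coated beads with anti-CD28 were added. Finally, after 18 h at 37 degrees C, EGFP and DsRed were imaged.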
# The depositor's hits bear a star; ? = inconclusive; / = no result; [ ] = remark or other dose. Sampled rows, rich in hits. Any-hit rate of the full collection: about 3.7%. Unless noted, calls follow the shape of the dose curve; as a rule, active = well fitted curve in the direction sought with a large enough effect; inconclusive = small, poorly fitted or top-dose-only effect, or another doubt; inactive = no such curve, though single readings can be large; an effect the other way counts as inactive or inconclusive.
SMILES | miR-21 FLuc | Nrf2 block | ClpP mod | A549 tox | Nrf2 activator | IL-2 act
O=C(Nc1sc2c(c1C(=O)NCC1CCCO1)CCCC2)c1cccs1 (stereo unspecified) | -9% | 21µM* | -3% | -14% | 5% | 0
COc1ccccc1OCCC(=O)OCC(=O)Nc1ccc(Br)cc1 | -6% | 9% | 28µM* | -3% | 0% | -3
CCc1ccc(NC(=O)C2CCN(S(=O)(=O)c3ccc4[nH]c5c(c4c3)CCCCC5)CC2)cc1 | 12% | -23% | ? | -12% | 0% | /
CS(=O)(=O)c1ccc(NC(=O)COc2ccccc2C(=O)Nc2ccccc2)cc1 | / | / | 1% | / | / | /
COc1ccc(Br)cc1CN(C)CC(=O)Nc1ccccc1Cl | -11% | -12% | 28µM* | 20% | 0% | 1
COc1ccc(Br)cc1CN(C)CC(=O)Nc1cc(Cl)ccc1Cl | 0% | -6% | -1% | 16% | 0% | 0
O=C(/C=C/c1cccc(F)c1)Nc1nccs1 | -42% | ? | / | 1% | 10µM* | 1
Oc1c(C(Nc2cccnc2)c2ccccc2F)ccc2cccnc12 (stereo unspecified) | / | / | 4% | / | / | /
CN(C)C(CNC(=O)c1cc(S(=O)(=O)N(C)Cc2ccccc2)ccc1Cl)c1ccco1 (stereo unspecified) | / | 15µM* | -1% | -8% | 0% | -1
CN(C)C(CNC(=O)c1cc(Br)ccc1Cl)c1ccco1 (stereo unspecified) | -7% | 2% | / | -8% | 3% | 1

# Entries of single compounds, quoted from the list.
# Record of `CS(=O)(=O)c1ccc(NC(=O)COc2ccccc2C(=O)Nc2ccccc2)cc1` → miR-21 FLuc: /; Nrf2 block: /; ClpP mod: 1%; A549 tox: /; Nrf2 activator: /; IL-2 act: /
# Record of `COc1ccccc1OCCC(=O)OCC(=O)Nc1ccc(Br)cc1` → miR-21 FLuc: -6%; Nrf2 block: 9%; ClpP mod: 28µM*; A549 tox: -3%; Nrf2 activator: 0%; IL-2 act: -3

# New compounds follow.
SMILES | miR-21 FLuc | Nrf2 block | ClpP mod | A549 tox | Nrf2 activator | IL-2 act
O=C(CN1CCC2(CC1)OCCO2)c1ccc2cc[nH]c2c1 | -13% | 0% | 32µM* | 0% | 0% | -3
O=C(CN1CCN(c2ccccc2)CC1)c1ccc2cc[nH]c2c1 | -5% | -9% | ? | 7% | 4% | -3
Cc1ccc(NC(=O)CCNC(=O)c2ccc(Br)cc2)cc1S(=O)(=O)N1CCOCC1 | / | -29% | -1% | -7% | 0% | -4
O=C(CCNC(=O)c1ccc([N+](=O)[O-])cc1)Nc1ccc(Cl)c(S(=O)(=O)N2CCOCC2)c1 | / | 23µM* | 0% | 2% | 5% | 2
Cc1cccc(OCCCC(=O)Nc2ccc(Cl)c(S(=O)(=O)N3CCOCC3)c2)c1 | / | ? | 1% | -10% | 0% | 0
CCOc1ccccc1OCCCC(=O)Nc1ccc(Cl)c(S(=O)(=O)N2CCOCC2)c1 | / | 16µM* | -1% | -12% | 4% | 0
CCOP(=O)(OCC)C(C)(C)NC(=O)Nc1ccc(Cl)c(Cl)c1 | 13% | 23µM* | -2% | 2% | 0% | 0
CCOP(=O)(OCC)C(NC(=O)Nc1ccc(Cl)cc1)C(N)=O (stereo unspecified) | -8% | -2% | -5% | -11% | 0% | 2
CCOP(=O)(OCC)C(NC(=O)Nc1ccc(Cl)c(Cl)c1)C(N)=O (stereo unspecified) | 0% | -6% | 16µM* | -1% | 0% | 7
COc1cc2nc(CC(O)c3nc4cc(OC)c(OC)cc4[nH]3)[nH]c2cc1OC (stereo unspecified) | / | / | -11% | / | / | /

# The list goes on:
SMILES | miR-21 FLuc | Nrf2 block | ClpP mod | A549 tox | Nrf2 activator | IL-2 act
C=C(C)c1cc2c(s1)c1cnn(Cc3ccccc3F)c(=O)c1n2C | / | ? | / | 1% | / | /
COc1ccc(NC(=O)c2sc3nc4c(c(-c5ccc(OC)cc5)c3c2N)C(=O)CC(C)(C)C4)cc1 | -3% | -21% | 1% | -10% | 0% | /
COc1ccc2c(Sc3ccc(Cl)cc3)c(C(=O)N3CCCCC3)[nH]c2c1 | 21% | 21µM* | -7% | -9% | 0% | /
COc1ccc2c(Sc3ccc(C)cc3)c(C(=O)NCC(C)c3ccccc3)[nH]c2c1 (stereo unspecified) | -21% | ? | -1% | 5% | -1% | /
COc1ccc2c(Sc3ccc(C)cc3)c(C(=O)NC(C)C)[nH]c2c1 | 25% | 23µM* | -14% | -2% | 0% | /
O=c1cc(-c2ccccc2)n2c(SCc3ccc([N+](=O)[O-])cc3)nnc2[nH]1 | -10% | / | -1% | 4% | 1% | /
O=C(NCc1ccc(Cl)cc1)c1ccc(NC(=O)N2CC3CCCN3c3ccccc32)cc1 (stereo unspecified) | 13% | -7% | 0% | 4% | 5% | /
Cc1cc(-n2c(SCC(=O)NCc3ccccc3)nc3ccsc3c2=O)ccc1Cl | 9% | / | -2% | -12% | 0% | /
O=C(Nc1nc(-c2cccc([N+](=O)[O-])c2)cs1)C(c1ccccc1)c1ccccc1 | 3% | 15µM* | -4% | ? | 1% | 1
O=[N+]([O-])c1cccc(-c2csc(N/N=C/c3cccc(O)c3)n2)c1 | 12% | 18µM* | / | ? | 24% | 3

# (listing goes on)
SMILES | miR-21 FLuc | Nrf2 block | ClpP mod | A549 tox | Nrf2 activator | IL-2 act
CCOC(=O)Cc1csc(N/N=C/c2cccc([N+](=O)[O-])c2)n1 | 7% | -12% | / | -1% | 0% | 1
COc1cccc(CC(=O)NCc2ccc3c(c2)CCN3C(C)=O)c1 | -29% | / | -2% | 4% | 0% | /
CCc1nnc(NC(=O)C2CCN(c3nccc(C)n3)CC2)s1 | -6% | -19% | 32µM* | -2% | 0% | 1
CCc1nnc(NC(=O)C2CCCN(c3nc(C)cc(C)n3)C2)s1 (stereo unspecified) | -10% | / | -8% | 11% | 0% | -2
COC(=O)[C@H](C)NS(=O)(=O)C1CC1 | / | / | 0% | / | / | /
COc1ccc(CN2CC[C@H]3C=CC[C@@H](C(=O)NC4CCCCC4)[C@H]3C2=O)cc1OC | / | / | 1% | / | / | /
COc1ccc(-c2csc(NC(=O)Cc3cc(OC)c(OC)c(OC)c3)n2)cc1OC | 25% | 21µM* | / | ? | 4% | -1
COc1cc(OC)cc(C(=O)N[C@H](C(=O)Nc2nc(-c3ccc(OC)c(OC)c3)cs2)C(C)C)c1 | 0% | 7.3µM* | -2% | -3% | 4% | 0
CC(=O)N1CCc2cc(Br)cc(S(=O)(=O)N3CCC(C)CC3)c21 | 12% | 1%[9.27 µM] | -7% | 1% | 0% | /
FC(F)(F)c1cccc(-c2nn[nH]n2)c1 | -6% | -10% | / | -8% | 0% | -2

# More results:
SMILES | miR-21 FLuc | Nrf2 block | ClpP mod | A549 tox | Nrf2 activator | IL-2 act
Nc1nc(N)c(-c2cccc(C(F)(F)F)c2)c(Cc2cccc(C(F)(F)F)c2)n1 | / | 15µM* | 1% | 2% | 3% | 0
COc1ccc(OCc2nc3ccccc3n2Cc2ccccc2Cl)cc1 | 4% | -18% | 0% | -3% | 0% | /
CC(Oc1ccc(F)cc1)C(=O)NCC1(N(C)C)CCCCC1 (stereo unspecified) | -3% | 1% | 2% | 2% | 2% | /
CCCCS(=O)(=O)c1oc(-c2ccc(F)cc2)nc1S(=O)(=O)c1ccccc1 | ? | 21µM* | -8% | ? | ? | /

# Given with values under each structure: part of the list above
# Below each SMILES: miR-21 FLuc, Nrf2 block, ClpP mod, A549 tox, Nrf2 activator, IL-2 act
> COc1ccc(OCc2nc3ccccc3n2Cc2ccccc2Cl)cc1
 : 4%, -18%, 0%, -3%, 0%, /
> CC(Oc1ccc(F)cc1)C(=O)NCC1(N(C)C)CCCCC1 (stereo unspecified)
 : -3%, 1%, 2%, 2%, 2%, /
> CCCCS(=O)(=O)c1oc(-c2ccc(F)cc2)nc1S(=O)(=O)c1ccccc1
 : ?, 21µM*, -8%, ?, ?, /

# High-throughput results deposited in PubChem BioAssay by National Center for Advancing Translational Sciences (NCATS).
